Measured values reported in patent publication US20170189357A1, “METHODS OF LIMITING MORBIDITY IN HEMOGLOBINOPATHIES” (DUKE UNIVERSITY, priority 2014, published 2017).

System: leukocytes
Assay: Leukocyte adhesion in transgenic sickle cell mice after TNFα challenge
Settings: over a period of 55 min, p<0.001

Compound: COc1cc(F)c(F)c(Nc2ccc(I)cc2F)c1NS(=O)(=O)C1(C[C@H](O)CO)CC1 [RDEA119]
- reduction of leukocyte adhesion (0.025 mg/kg): 73%
- reduction of leukocyte adhesion (0.05 mg/kg): 99
- reduction of leukocyte adhesion (0.1 mg/kg): 97%
